The numbers were not newly measured in patent US20080113011A1, “Compositions and methods for enhanced mucosal delivery of interferon beta” (Nastech Pharmaceutical Company Inc., priority 2002, published 2008), which cites them from elsewhere.

The conditions of data set [1]: rabbits.
The mark [2] stands for this setting: after an intramuscular or subcutaneous dose.

Take “IFN-β: interferon-β, glycoprotein of 20 kDa, 166 amino acids”: under setting [2], the “time biological markers remain elevated” value is 4 days and the “time of peak of biological markers (2',5'-OAS, neopterin, β2-microglobulin)” value is listed as ~48 hours. Besides, for the setting “in vivo”, the elimination half-life result is given as “around 10 hours”. Moreover, in data set [1] (solution or powder formulations without surfactants), the “absorption after intranasal administration, in words” value is recorded as “not absorbed”. In addition, the “Total absorption following nasal administration, of that following intravenous administration” value in data set [1] (with sodium glycocholate) was 2.2%.
